Measured values as given in publication PMC12291143.

Protein sequences, listed by entry. Tags and fused reporters are not part of them. Residues count along the entry.
UniProt P05067, 672-711 limits assumed: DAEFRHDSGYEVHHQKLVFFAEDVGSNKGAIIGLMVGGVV

Biological target: Aβ40 (amyloid-β; oligomers and fibrils) (Homo sapiens, UniProt P05067)
Experiment: fluorescence turn-on binding with Aβ[…] oligomers/fibrils ([…])

Kd: 478 nM
Structure (SMILES): CCCC(CCC)C(=O)OCC(=C1N=C(/C=C/c2ccc(N(c3ccccc3)c3ccccc3)cc2)OC1=O)c1ccc([N+](=O)[O-])cc1
